Values quoted from earlier work, collected in paper PMC2751796 (Pharmacology & therapeutics, 2009).

Tested on: P-gp and BCRP
Settings: ref Oostendorp et al., 2009; Chen et al., 2008; cited from earlier work

Cc1ccc(NC(=O)c2ccc(CN3CCN(C)CC3)cc2)cc1Nc1nccc(-c2cccnc2)n1 [Imatinib]
Increase of brain-to-plasma concentration ratio in triple KO mice: 12-13 fold
